The assay has as its target patatin-17 (pat17) (Solanum cardiophyllum, UniProt Q8LPW4). Nature of the assay: phenyl valerate hydrolase inhibition, spectrophotometric at […] nm. Conditions: read-out: 20 min IC50 (μM) ^1; covalent (Ser77); 20 min preincubation, 37 °C, pH 7.4; racemic inhibitor; crystal holds non-aged (S)-adduct.

Amino acid sequences for entries named in this document (tags omitted). Residues count along the entry.
UniProt Q8LPW4, 24-386 limits assumed: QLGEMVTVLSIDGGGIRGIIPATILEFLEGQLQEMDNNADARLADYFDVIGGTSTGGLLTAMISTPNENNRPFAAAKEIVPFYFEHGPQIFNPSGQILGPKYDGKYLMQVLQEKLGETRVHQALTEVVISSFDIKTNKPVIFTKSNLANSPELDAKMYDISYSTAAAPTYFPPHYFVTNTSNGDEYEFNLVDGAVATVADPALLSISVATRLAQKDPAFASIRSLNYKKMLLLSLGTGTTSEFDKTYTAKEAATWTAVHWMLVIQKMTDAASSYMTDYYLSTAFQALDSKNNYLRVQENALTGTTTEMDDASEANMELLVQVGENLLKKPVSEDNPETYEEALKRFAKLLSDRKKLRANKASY

As to `CCCCC/C=C\C/C=C\C/C=C\C/C=C\CCCCP(=O)(F)OC` (racemic), the IC50 (as a rule, the concentration needed to halve the response being measured) came to 0.116 µM.

These data come from paper PMC4172759, “Crystal Structure of Patatin-17 in Complex with Aged and Non-Aged Organophosphorus Compounds” (2014).
